An excerpt weighted towards active compounds, which were near 1.3% of everything screened.
AF4-AF9 inh: MLL-AF4/AF9 protein interaction inhibition. P42568. AlphaScreen, biotin-AF4 peptide binding to FLAG-AF9. inhibition, % at 10 µM. 350,000 tested, 0.47% active;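 active = every replicate reaching a set inhibition limit, whatever the replicate mean, cut at about 25% in these data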;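 note: 0% = plate neutral control median and 100% = total signal loss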
Yeast UUG start: modulators of start codon recognition fidelity in yeast; AID 602363; hit rate 0.13% among 350,000; activity score, % at 18.7 µM; S. cerevisiae UUG-firefly luciferase reporter, luminescence/redox ratio;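 active = replicate mean at a twofold rise or more, about +100% in these data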;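 note: firefly luciferase made from a UUG start codon reports start codon fidelity; reporter light over untreated wells divided by growth signal over untreated wells; some hits fall short of that in this replicate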
S100A4 MyoIIA: S100A4-myosin IIA interaction inhibition; P26447; S100A4/TAMRA-MyoIIA peptide fluorescence polarization; inhibition, % at 10.7 µM; 360,000 tested, 0.14% active; AID 652163;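 active = mean inhibition of at least 70% across replicates, with every replicate also reaching that level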
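incubation = readout 5 min after mixing, signal stable up to 60 min | system = S100A4 monomer protein | buffer or medium = HEPES pH 7.2 with CaCl2, KCl, NaCl, DTT, Triton | benchmarks = neutral control DMSO, positive control TFP | also added = fluorescent myosin IIA peptide, 5 nM | compound dosing = one concentration per compound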
E-sel inducer: induces E-selectin expression in human endothelial cells. HUVEC E-selectin immunofluorescence imaging; normalized: neutral wells 0, TNF-alpha wells 100. activation, % at 7.58 µM. 260,000 tested, 0.37% active;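 active = mean E-selectin-positive cell signal at least 10% of the positive control, reached in at least 60% of replicates, without over 20% cell loss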
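Test system: HUVEC | Signal: Immunofluorescence imaging | Read-out: Percent E-selectin-positive cells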
ARNT-TACC3 inh: disrupts binding between human ARNT and TACC3; inhibition, % at 9.99 µM; 390,000 tested, 0.66% active; AlphaScreen His-ARNT PAS-B/GST-TACC3 binding, luminescence; TACC3 fragment carries E629A point mutation;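 active = mean inhibition of replicates at least 50% and at least half of replicates each reaching 50%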;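 note: 0% = complete ARNT plus TACC3 wells and 100% = ARNT alone without TACC3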
ERAP1 HTS inh: blocks human ERAP1 aminopeptidase activity; inhibition, % at 10.7 µM; 340,000 tested, 0.15% active; recombinant ERAP1, Leu-AMC fluorescence, 60 min; Q9NZ08; AID 652197;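 active = mean replicate inhibition of at least 30%, or all replicates individually reaching that 30% level; inactive = mean below 30% and not every replicate reaching it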;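 note: 0% = neutral control wells and 100% = L-leucinethiol positive control wells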
Active calls of the source: *; . = not tested or not shown.

SMILES	AF4-AF9 inh	Yeast UUG start	S100A4 MyoIIA	E-sel inducer	ARNT-TACC3 inh	ERAP1 HTS inh
COc1ccc(-c2ccc([C@@H]3[C@@H](CO)N4C(=O)CNC[C@@H]34)cc2)cc1	-3.1	.	-17.1	0.3	.	-1.4
O=C(Nc1cc(F)ccc1F)N1CC(=O)N2[C@H](CO)[C@H](c3ccc(C#CC4CCCC4)cc3)[C@@H]2C1	1.6	.	-0.4	-0.6	.	-2.5
COc1ccc(OC)c(Nc2cc3ccccc3c(=O)[nH]2)c1	10.0	-80.0	-26.3	1.0	38.2*	2.6
CCOc1ccc(Nc2nc(N)nc(CSC(=S)N3CCN(c4ccccc4)CC3)n2)cc1	35.4*	.	-1.0	2.6	1.8	4.9
COc1ccc(C(=O)N/C(=C\c2ccco2)C(=O)NCCCn2ccnc2)cc1	-4.1	0.7	1.8	.	18.8	-1.4
Cc1ccc(C(=O)N/C(=C\c2ccco2)C(=O)NCCCn2ccnc2)cc1C	5.0	-9.2	0.1	.	77.0*	-4.1
Cc1ccc(C(=O)N/C(=C\c2cccs2)C(=O)NCCCn2ccnc2)cc1	.	.	.	.	1.9	.
Cc1ccc(C(=O)N/C(=C\c2cccs2)C(=O)NCCCn2ccnc2)cc1C	.	-6.5	.	.	70.8*	.
COc1ccccc1-n1c(SCC(=O)O)nc2c(sc(=S)n2-c2ccccc2C)c1=O	-2.2	-17.5	-23.2	42.8*	15.4	0.2
COc1ccccc1NC(=O)N1C[C@@H]2[C@H](c3ccccc31)[C@H](CO)N2C(=O)C1CCCC1	2.1	6.4	1.9	0.1	7.0	-0.7
O=C(O)c1cc(Br)ccn1	0.0	.	-4.7	.	-14.9	-1.1
O=C(O)c1ccnc(C(=O)O)c1	.	.	.	.	56.6*	.
Cc1cccc(NCc2n[nH]c(=S)n2-c2ccccc2)c1	-9.7	.	-0.3	1.1	.	-2.2
Cc1ccc(NCc2n[nH]c(=S)n2-c2ccccc2)cc1	-5.3	.	-1.4	30.3*	.	2.0
O=C(c1ccc2ncsc2c1)N1CCCCC1	-4.6	-15.4	-2.3	.	-2.9	-0.2
Nc1nc2ccc(C(=O)N3CCCCC3)cc2s1	-0.9	-3.8	-3.8	.	47.2*	-2.0
CCCNC(=O)Nc1ccc2c(c1)C(=O)N(C)C[C@H](OC)[C@@H](C)CN(C(=O)C1CCOCC1)[C@@H](C)CO2	-0.1	-7.8	.	-0.2	.	.
Cc1nn(-c2ccccc2)c(N)c1N=Nc1ccccc1	31.3*	.	1.1	.	17.9	2.0
CC(C)CC#Cc1cnc2c(c1)C(=O)N([C@@H](C)CO)C[C@H](C)[C@@H](CN(C)Cc1ccccn1)O2	-0.9	55.4	-4.3	-0.2	9.2	1.0
CC(C)(C)CC(=O)Nc1ccc(-c2cn3cccnc3n2)cc1	-8.3	-18.9	-6.9	34.4*	0.7	-63.3

Profiles, looked up by structure.
Cc1ccc(NCc2n[nH]c(=S)n2-c2ccccc2)cc1 across the screens: AF4-AF9 inh = -5.3; Yeast UUG start = .; S100A4 MyoIIA = -1.4; E-sel inducer = 30.3*; ARNT-TACC3 inh = .; ERAP1 HTS inh = 2.0
CC(C)(C)CC(=O)Nc1ccc(-c2cn3cccnc3n2)cc1 across the screens: AF4-AF9 inh = -8.3; Yeast UUG start = -18.9; S100A4 MyoIIA = -6.9; E-sel inducer = 34.4*; ARNT-TACC3 inh = 0.7; ERAP1 HTS inh = -63.3

The listing continues:
SMILES	AF4-AF9 inh	Yeast UUG start	S100A4 MyoIIA	E-sel inducer	ARNT-TACC3 inh	ERAP1 HTS inh
Cc1cc(C(=O)N/N=C/C=C/c2ccc([N+](=O)[O-])cc2)n[nH]1	0.1	.	5.5	53.9*	.	7.4
Cc1cc(C(=O)N/N=C/C=C/c2ccc(Br)cc2)n[nH]1	-4.9	-1.9	-6.6	0.1	-0.6	-6.7
CCNC(=O)C[C@H]1CC[C@@H]2[C@H](COC[C@H](O)CN2S(=O)(=O)c2ccccc2F)O1	13.9	31.5	-1.1	0.0	2.2	-1.4
O=C(Cn1cnc([N+](=O)[O-])n1)N/N=C/c1ccc(O)cc1O	-1.7	.	-2.5	.	63.5*	-9.6
N#C[C@@H]1[C@H](c2ccccc2-c2cccc(F)c2)[C@@H](CO)N1C(=O)C1CC1	1.4	.	77.4*	0.0	.	-1.9
O=C1CNC[C@H]2[C@@H](c3ccc(C#CC4CCCC4)cc3)[C@@H](CO)N12	-0.4	.	88.1*	-0.1	.	-0.4
CCC(=O)N1[C@H](CO)[C@H](c2ccc(-c3cccc(OC)c3)cc2)[C@H]1CNC(C)=O	-1.9	.	-7.1	0.6	.	-0.3
CO[C@H]1CN(C)C(=O)c2cccc(C#N)c2OC[C@@H]2O[C@H](CC[C@H]2OC)CCN(C)C(=O)[C@H]1C	0.9	.	-12.8	0.1	-1.6	0.2
CCOc1cc(C2C3=C(CC(C)(C)CC3=O)N(CCCOC)C3=C2C(=O)CC(C)(C)C3)ccc1OC	29.0*	-10.2	-3.0	.	8.1	-3.0
COc1ccc(S(=O)(=O)Nc2ccc3c(c2)C(=O)N([C@@H](C)CO)C[C@@H](C)[C@@H](CN(C)C(=O)NC2CCCCC2)OCCCC[C@H](C)O3)cc1	1.4	4.3	6.0	.	-8.0	0.9
CCN(C(=S)Nc1cccnc1)c1cccc2ccccc12	-1.0	.	-2.4	.	51.3*	-0.3
CCN(C(=S)Nc1cccnc1)c1ccccc1	-0.1	-9.5	-1.1	-0.1	1.5	0.9
C[C@@H]1CN([C@@H](C)CO)S(=O)(=O)c2ccc(-c3ccccc3)cc2O[C@H]1CN(C)C	-1.4	1.2	-3.5	-0.1	-1.0	-0.5
CO[C@@H]1CN(C)C(=O)c2cc(NC(=O)C3CC3)ccc2OC[C@H](C)N(Cc2nccs2)C[C@@H]1C	0.2	-2.9	5.4	0.1	-9.1	0.0
Cc1nc(Cl)cc(N/N=C/c2ccc(O)cc2O)n1	4.2	-21.1	0.6	.	27.0*	1.1
Cc1nc(Cl)cc(N/N=C/c2ccc(O)cc2)n1	0.1	-11.3	4.2	.	20.5	-0.1
N#CCSc1nc2cc(C(=O)N3CCC(C(N)=O)CC3)ccc2c2nc3ccccc3n12	.	-12.1	.	.	46.9*	.
Cc1[nH]c(C)c(S(=O)(=O)N2CCCCC2)c1C(=O)N1CCCC1	2.4	-19.2	-4.7	85.3*	8.2	5.7
O=C1C2C(c3ccccc3)CC=CC2[C@H](c2ccc3ccccc3c2)N1Cc1ccccc1 (stereo partly drawn)	-4.9	-17.7	-3.3	0.0	-1.0	0.8
Cc1ccc(F)c([C@H]2C3C=CCC(c4ccccc4)C3C(=O)N2Cc2ccccc2)c1 (stereo partly drawn)	50.2*	-17.2	-0.6	-0.2	-3.7	-3.2

6 of the entries above in order of their number in ERAP1 HTS inh, rising:
Structure	ERAP1 HTS inh
Cc1ccc(F)c([C@H]2C3C=CCC(c4ccccc4)C3C(=O)N2Cc2ccccc2)c1 (stereo partly drawn)	-3.2
CCN(C(=S)Nc1cccnc1)c1cccc2ccccc12	-0.3
O=C1C2C(c3ccccc3)CC=CC2[C@H](c2ccc3ccccc3c2)N1Cc1ccccc1 (stereo partly drawn)	0.8
CCN(C(=S)Nc1cccnc1)c1ccccc1	0.9
Cc1nc(Cl)cc(N/N=C/c2ccc(O)cc2O)n1	1.1
Cc1[nH]c(C)c(S(=O)(=O)N2CCCCC2)c1C(=O)N1CCCC1	5.7

(list continues)
SMILES	AF4-AF9 inh	Yeast UUG start	S100A4 MyoIIA	E-sel inducer	ARNT-TACC3 inh	ERAP1 HTS inh
CC(C)NC(=O)N1C[C@H]2[C@@H](c3ccccc31)[C@@H](CO)N2C(=O)c1ccncc1	-1.6	-8.8	21.8	0.4	3.1	-5.2
C[C@H]1CCCCO[C@@H](CN(C)C(=O)Nc2ccccc2)[C@@H](C)CN([C@@H](C)CO)C(=O)c2cc(NS(=O)(=O)c3cn(C)cn3)ccc2O1	-1.0	-0.4	5.2	-0.2	-3.3	0.9
CN1CCN(C(=S)c2cn(Cc3ccc(Br)cc3)c3ccccc23)CC1	27.0*	.	0.3	.	2.0	2.7
CCOc1cc(/C=C/c2nc3cc(C)c(C)cc3s2)ccc1OCC(=O)N1CCOCC1	5.0	-8.5	-3.0	-2.4	-8.5	36.5*
CCOC(=O)CCCCC(=O)c1[nH]c(=O)[nH]c1C[n+]1ccc(C)cc1	7.8	-5.8	-0.6	-0.7	8.0	2.0
CCOC(=O)CCCCC(=O)c1[nH]c(=O)[nH]c1CN1CCOCC1	85.0*	7.2	-1.1	.	-4.6	-1.8
Cc1cc(=O)[nH]c(N/N=C/c2ccc(Br)s2)n1	1.5	-14.0	-4.5	0.2	60.9*	1.1
